The nature of data set [1]: Photophysical properties of PEs alone (excitation/emission spectra, fluorescence yield). Type of data set: physicochemical. As for the experimental part:
Excitation and emission spectra of PEs in phosphate buffer alone, with monomeric HEWL and with HEWL amyloids (8 h incubated) are shown in FIGS. 18A-H, and relevant photophysical properties are summarized in Table 1. FIGS. 18A-H illustrate excitation (A, B, C, D) and emission (right; E, F, G. H) spectra of PEs (A, E: PE1+; B, F: PE1−; C, G: PE2+; D, H: […]) alone (long dashed line) with HEWL monomers (short dashed line) and with HEWL amyloids (solid line); PE concentration: 500 nM, protein concentration: 5 μM monomer basis/0.25 mg/mL; emission and excitation wavelengths, respectively, were chosen as shown in Table 1 for each sample. A 10:1 molar ratio of protein to PE was used for these experiments. Absorbance spectra were taken, but background light scattering from insoluble amyloid aggregates made them difficult to interpret, so “fluorescence detected absorbance” in the form of excitation spectra was used instead. Normalized excitation and emission spectra, in which peak shifts and lineshape changes of spectra were somewhat easier to visualize, were used. […] PE1+ (FIG. 18E) had no change in wavelength or lineshape of emission spectrum, just a large increase in intensity when mixed with amyloids. The excitation spectra (FIGS. 18A, B, C, D) show a notable bathochromic shift for each PE in solution mixed with amyloid, of 23, 27, 35 and 29 nm for PE1+, PE2+, PE3+ and PE1−, respectively, observing only the low-energy band. The high-energy band, less relevant for imaging purposes, was also bathochromically shifted. […] PE1− had similar excitation spectrum (FIG. 18B) with monomer and amyloid, except for a large intensity difference.
(§1) For studies of fluorescence enhancement vs. protein incubation time, dyes were mixed with protein sample in phosphate buffer (10 mM, pH 7.4) at equal monomer concentration of 10 μM in the wells of a standard 96-well plate. Emission spectra were obtained using top read with a SpectraMax M2e plate-reading spectrophotometer (Molecular Devices, Sunnyvale, CA). Experiments were performed in duplicate and errors are reported as standard deviation. For analysis of bound PE excitation and emission spectra and protein-PE energy transfer, PEs (500 nM) were mixed with protein sample (5 μM, monomer basis) in phosphate buffer and the solution transferred to a quartz, fluorometry cuvette. Spectra were obtained on a PTI QuantaMaster 40 steady state spectrofluorometer (HORIBA Scientific, Edison, NJ).

Protein sequences, listed by entry. Tags and fused reporters are not part of them. Residues count along the entry.
UniProt P00698, 19-147 limits assumed: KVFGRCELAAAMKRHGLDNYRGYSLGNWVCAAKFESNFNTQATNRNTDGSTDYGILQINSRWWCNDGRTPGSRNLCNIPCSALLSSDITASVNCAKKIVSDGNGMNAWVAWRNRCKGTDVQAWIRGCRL

A further data set deals with HEWL amyloids (Gallus gallus, UniProt P00698). Put plainly: Excitation and emission spectra of PEs with HEWL amyloids. The format is binding, hen. The note with it: PE 500 nM, HEWL amyloid 5 μM monomer basis. The protocol: Excitation and emission spectra of PEs in phosphate buffer alone, with monomeric HEWL and with HEWL amyloids (8 h incubated) are shown in FIGS. 18A-H, and relevant photophysical properties are summarized in Table 1. FIGS. 18A-H illustrate excitation (A, B, C, D) and emission (right; E, F, G. H) spectra of PEs (A, E: PE1+; B, F: PE1−; C, G: PE2+; D, H: PE3+) in phosphate buffer (PB, pH 7.4, 10 mM) alone (long dashed line) with HEWL monomers (short dashed line) and with HEWL amyloids (solid line); PE concentration: 500 nM, protein concentration: 5 μM monomer basis/0.25 mg/mL; emission and excitation wavelengths, respectively, were chosen as shown in Table 1 for each sample. A 10:1 molar ratio of protein to PE was used for these experiments. Absorbance spectra were taken, but background light scattering from insoluble amyloid aggregates made them difficult to interpret, so “fluorescence detected absorbance” in the form of excitation spectra was used instead. Normalized excitation and emission spectra, in which peak shifts and lineshape changes of spectra were somewhat easier to visualize, were used. […] PE1+ (FIG. 18E) had no change in wavelength or lineshape of emission spectrum, just a large increase in intensity when mixed with amyloids. The excitation spectra (FIGS. 18A, B, C, D) show a notable bathochromic shift for each PE in solution mixed with amyloid, of 23, 27, 35 and 29 nm for PE1+, PE2+, PE3+ and PE1−, respectively, observing only the low-energy band. The high-energy band, less relevant for imaging purposes, was also bathochromically shifted. […] PE1− had similar excitation spectrum (FIG. 18B) with monomer and amyloid, except for a large intensity difference.
Lyophilized HEWL was dissolved at 10 mg/mL in 10 mM pH 3 sodium citrate buffer with 0.1 M NaCl. The solution was incubated in a 70C oil bath and magnetically stirred at 250 rpm for 12 h, and aliquots were withdrawn at half-hour intervals. […] Half of each aliquot was immediately diluted into pH 7.4 phosphate buffer to prevent further influence of acidic conditions and stored at 4C.
as §1, with “Spectra were obtained on a PTI QuantaMaster 40 steady state spectrofluorometer (HORIBA Scientific, Edison, NJ).” left out

Another data set concerns the target HEWL amyloid (Gallus gallus, UniProt P00698). Put plainly: Binding saturation assay of PEs to HEWL amyloid (Hill fit). Set-up: species or system hen. As for the experimental part: Next, binding saturation assays were conducted to quantify the affinity of PE-amyloid binding; data and fitted curves were produced and the fitted parameters are summarized in the last two columns of Table 1. Since the linear fibril binding sites could fit many PEs, fits to binding curves were performed to the Hill equation to capture possible binding cooperativity:
[formula] where x is PE concentration (with protein concentration fixed), y is PE fluorescence intensity. […] Fits to the data for the three cationic PEs produced Fmax values close to the observed saturation value, and the other two parameters are reported as calculated. […] Furthermore, the cooperativity of PE binding increased from almost no cooperativity for PE1+, to some positive cooperativity for PE2+, to still more positive cooperativity for PE3+. The quantitative physical meaning of the Hill parameter is not quite clear except in special cases, but in a general way it is possible to conclude that for the cationic PEs, the shortest PE has non-cooperative binding to HEWL amyloid (Michaelis-Menten binding), and the two longer PEs have increasingly positively cooperative binding. […] The effect of PE1− non-specific binding to HEWL monomers precluded accurate determination of a binding constant for PE1−/amyloid interactions such that a quantitative comparison of binding between the cationic and anionic compounds could not be made.
For determination of binding constant of PEs to amyloid aggregates, PEs were mixed with HEWL amyloid in phosphate buffer at a final concentration of 100 nM-5 μM for PEs and 5 μM (monomer basis) for protein. The solutions were then transferred to a quartz fluorometry cuvette and emission measured at the pertinent wavelength. […] Hill function fits to PE binding curves were calculated in OriginPro 9.

In data set [2] the target is HEWL fibrils incubated for different lengths of time (Gallus gallus, UniProt P00698). The data set can be described thus: Fluorescence enhancement of dyes versus HEWL incubation time. Type of data set: binding, hen. To be noted: dye 10 μM, HEWL 10 μM monomer basis. The protocol:
Hen egg white lysozyme (HEWL) was used to form fibrillary amyloid aggregates for use in this study. […] For these experiments. HEWL (Sigma-Aldrich) was incubated at 70′C and a concentration of 350 μM in pH 3 sodium citrate buffer (10 mM) with 100 mM NaCl.
A plot of normalized fluorescence enhancement for all four PEs and Thioflavin T with HEWL fibrils incubated for different lengths of time is shown in FIG. 15. PE1+ and PE2+ track amyloid formation in roughly the same way as ThT, showing a sigmoidal curve with onset of a logarithmic growth phase occurring at the same time, around 1 hour of incubation. The plateau phase, as monitored by fluorescence of any of those three PEs or ThT, appeared at 2 hours incubation. […] PE1− has greater fluorescence enhancement when mixed with monomeric species than with amyloid at the equimolar concentrations used for this assay.
For studies of fluorescence enhancement vs. protein incubation time, dyes were mixed with protein sample in phosphate buffer (10 mM, pH 7.4) at equal monomer concentration of 10 μM in the wells of a standard 96-well plate. Emission spectra were obtained using top read with a SpectraMax M2e plate-reading spectrophotometer (Molecular Devices, Sunnyvale, CA). Experiments were performed in duplicate and errors are reported as standard deviation. […]

The target in a further data set is HEWL amyloid fibrils (Gallus gallus, UniProt P00698). Put plainly: Induced circular dichroism of PE-amyloid complexes. Type of data set: binding, hen. The note with it: PEs 10 μM, HEWL 10 μM monomer basis. The protocol: Circular dichroism measurements were performed to determine if the intrinsic chirality of the HEWL fibrils was transferred to the PE chromophore by a chiral backbone twist or an “excitonic” chiral supramolecular aggregate. CD spectroscopy (CPEs in PB with HEWL monomer and with HEWL amyloid; performed for (a): PE1+; (b): PE1−; (c): PE2+; (d): PE3+; PEs 10 μM, HEWL 10 μM monomer basis/0.5 mg/mL) indicated induced circular dichroism of PEs when bound to HEWL amyloids. As expected, no PE had optical activity by itself in phosphate buffer solution and none of the PEs had any CD with HEWL monomer, including PE1−. […] PE1−, PE2+ and PE3+ all had strong induced CD with a negative Cotton effect when bound to HEWL amyloid fibrils. PE2+ and PE3+ gave rise to similar CD spectra, with more intense bands in the spectrum for PE3+.
PEs and protein samples were diluted in phosphate buffer, gently vortexed, and read in a 1 mm pathlength quartz CD cuvette using an Aviv 410 CD spectrometer (Aviv Biomedical, Lakewood, NJ), 15 s averaging time. A blank spectrum (PB only) was subtracted from each sample to remove background activity. Error bars are standard deviation over multiple reads of a single sample as reported by the instrument.
(CD spectra are sensitive to the conformation of chiral molecules.)

[3] abbreviates: phosphate buffer pH 7.4, 10 mM, PE 500 nM.

Like-named read-outs stand apart in the source and are kept apart here.

For `CCOC(=O)c1ccc(C#Cc2cc(OCC[N+](C)(C)C)c(C#Cc3ccc(C(=O)OCC)cc3)cc2OCC[N+](C)(C)C)cc1`, in data set [1] (H2O), the “λem (H2O)” value is 454 nm and the “φfl (H2O)” value came to 0.023. In data set [1] (MeOH), the “φfl (MeOH)” value amounted to 0.75. The “λem (PB)” value in data set [1] (phosphate buffer) amounted to 454 nm. Moreover, in data set [1] (setting [3]), the “λex (PB), high-energy band” value was 314 nm and the “λex (PB), low-energy band” value is recorded as 362 nm. The “bathochromic shift of excitation spectrum, low-energy band, with amyloid” value on HEWL amyloids was determined as 23 nm. Besides, on HEWL amyloids (PB), the “λem (PB w/ HEWL)” value came out at 454 nm; the “λex (PB w/HEWL), high-energy band” value is recorded as 332 nm; the “λex (PB w/HEWL), low-energy band” value came to 385 nm. The Hill coeffi. at HEWL amyloid (PE binding to HEWL amyloid) is reported as 1.04. Further, the Kd at HEWL amyloid (read-out: Kd (apparent binding constant to HEWL amyloid), PE 100 nM-5 μM, protein 5 μM monomer basis, PB) came out at 2630 nM. Further, on HEWL amyloid (read-out: calculated dissociation constant, HEWL amyloid, Hill fit), the Kd is 2600 nM. Also, the “HEWL incubation time at which the plateau phase of fluorescence enhancement appears” value in data set [2] was 2 h. The “induced circular dichroism with HEWL amyloid” value on HEWL amyloid fibrils is listed as “did not have optical activity”.

Values taken from patent US12163953B2, “P-phenylene ethynylene compounds as bioactive and detection agents” (STC.UNM, priority 2014, dated 2024).
